The numbers were not newly measured in paper PMC6767236, “Selective Cannabinoid 2 Receptor Agonists as Potential Therapeutic Drugs for the Treatment of Endotoxin-Induced Uveitis” (Molecules, 2019), which cites them from elsewhere.

By UniProt entry, the sequences of proteins in these tests, tags left out.
UniProt P34972, whole entry: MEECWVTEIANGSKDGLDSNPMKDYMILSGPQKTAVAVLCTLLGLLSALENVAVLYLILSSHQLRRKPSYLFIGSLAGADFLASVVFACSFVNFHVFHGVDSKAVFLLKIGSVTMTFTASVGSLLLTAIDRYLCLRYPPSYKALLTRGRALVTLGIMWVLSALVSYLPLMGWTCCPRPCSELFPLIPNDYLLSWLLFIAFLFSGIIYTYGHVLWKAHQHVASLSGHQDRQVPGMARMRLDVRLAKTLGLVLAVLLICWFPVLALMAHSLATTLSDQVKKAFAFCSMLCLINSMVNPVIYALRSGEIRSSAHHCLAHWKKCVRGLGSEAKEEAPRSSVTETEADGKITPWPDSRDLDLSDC

The EC50 is the concentration giving half of the maximal effect. One may read the Ki as the equilibrium dissociation constant of an inhibitor or competing ligand from its target.

Like-named read-outs stand apart in the source and are kept apart here.

Data set [1] addresses T1, human CB2R (Homo sapiens, UniProt P34972).
T1 construct: bgal (beta-galactosidase fragment of the PathHunter system, named only in the cell line's name); host or cells: CHO-K1 (CHOK1hCB2_bgal)
The note with it: read-out: hCB2R: beta arrestin EC50; * previously published; cited from earlier work.

In data set [2] the target is T1, human CB2R. The settings on record: read-out: hCB2R: cAMP EC50; * previously published; cited from earlier work.
Data set [3] has as its target T1, human CB2R. The note with it: read-out: hCB2R: Ki; [3H]-CP55940 displacement; * previously published; cited from earlier work.

For `CCCCCCC(C)(C)c1cc(OC)c([C@H]2C=C(CO)[C@H]3C[C@@H]2C3(C)C)c(OC)c1` [HU308, {(1S,4S,5S)-4-[2,6-Dimethoxy-4-(2-methyloctan-2-yl)phenyl]-6,6-dimethylbicyclo[3.1.1]hept-2-en-2-yl}methanol, reference compound], the results for the EC50 in data set [1] and in data set [2] were 101 nM and 3 nM, respectively. Besides, in data set [3], the Ki is 10 nM.
